This is an account of results in publication PMC9287138, “Proteasome activator 28γ (PA28γ) allosterically activates trypsin-like proteolysis by binding to the α-ring of the 20S proteasome” (The Journal of Biological Chemistry, 2022).

Experiment [1] concerns the target T1, α3ΔN yeast 20S proteasome (α3ΔN-Y20S), constitutively open-gate (yeast), P21243.
Experiment [2] addresses T1, α3ΔN yeast 20S proteasome (α3ΔN-Y20S), …. The source holds these as a separate data set.
Experiment [3] deals with T2, Proteasome activator 28γ (PA28γ), recombinant human, wild type (human), P61289.
T2 chain: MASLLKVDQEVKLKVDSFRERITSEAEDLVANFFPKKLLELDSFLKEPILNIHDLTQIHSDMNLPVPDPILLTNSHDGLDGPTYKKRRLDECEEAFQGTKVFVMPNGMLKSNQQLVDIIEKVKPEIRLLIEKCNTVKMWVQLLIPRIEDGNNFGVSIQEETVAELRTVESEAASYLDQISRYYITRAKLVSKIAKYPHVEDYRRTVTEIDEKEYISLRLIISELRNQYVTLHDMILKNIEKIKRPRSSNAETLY
The experiment in a line: cryo-EM structure; PA28γ and H20S mixed at a 1:1 M ratio, plunge-frozen; single particle analysis in cryoSPARC, 876 particles, C7 symmetry applied, 4.3 Å. The settings on record: remark: other sources report otherwise.

As usually defined, the stoichiometry N is a count of units in the complex or per binding partner.

B1: Proteasome activator 28γ (PA28γ), recombinant human, wild type, P61289 1-254 (natural protein)
chain: T2 chain
B1: in experiment [1], the decrease of the Km of α3ΔN-Y20S for the T-L substrate RLR-AMC with PA28γ (62.5 nM) is > 400%, the fold change of the catalytic efficiency (Kcat/Km) of the T-L site of α3ΔN-Y20S with PA28γ (62.5 nM) was > 13 fold and the increase of the Vmax of α3ΔN-Y20S for the T-L substrate RLR-AMC with PA28γ (62.5 nM) is > 300%. Further, in experiment [2], the activation of α3ΔN-Y20S with the T-L substrate RLR-AMC by PA28γ (62.5 nM), against α3ΔN-Y20S controls was determined as 15 fold. Further, the stoichiometry N in experiment [3] was found to be 7.
